The source of these data is patent publication US5013756A, “Catechol derivatives, a process of preparation thereof, and therapeutical compositions containing the same” (priority 1985, dated 1991).

Amino acid sequences for entries named in this document (tags omitted). Residues count along the entry.
UniProt P80457, whole entry: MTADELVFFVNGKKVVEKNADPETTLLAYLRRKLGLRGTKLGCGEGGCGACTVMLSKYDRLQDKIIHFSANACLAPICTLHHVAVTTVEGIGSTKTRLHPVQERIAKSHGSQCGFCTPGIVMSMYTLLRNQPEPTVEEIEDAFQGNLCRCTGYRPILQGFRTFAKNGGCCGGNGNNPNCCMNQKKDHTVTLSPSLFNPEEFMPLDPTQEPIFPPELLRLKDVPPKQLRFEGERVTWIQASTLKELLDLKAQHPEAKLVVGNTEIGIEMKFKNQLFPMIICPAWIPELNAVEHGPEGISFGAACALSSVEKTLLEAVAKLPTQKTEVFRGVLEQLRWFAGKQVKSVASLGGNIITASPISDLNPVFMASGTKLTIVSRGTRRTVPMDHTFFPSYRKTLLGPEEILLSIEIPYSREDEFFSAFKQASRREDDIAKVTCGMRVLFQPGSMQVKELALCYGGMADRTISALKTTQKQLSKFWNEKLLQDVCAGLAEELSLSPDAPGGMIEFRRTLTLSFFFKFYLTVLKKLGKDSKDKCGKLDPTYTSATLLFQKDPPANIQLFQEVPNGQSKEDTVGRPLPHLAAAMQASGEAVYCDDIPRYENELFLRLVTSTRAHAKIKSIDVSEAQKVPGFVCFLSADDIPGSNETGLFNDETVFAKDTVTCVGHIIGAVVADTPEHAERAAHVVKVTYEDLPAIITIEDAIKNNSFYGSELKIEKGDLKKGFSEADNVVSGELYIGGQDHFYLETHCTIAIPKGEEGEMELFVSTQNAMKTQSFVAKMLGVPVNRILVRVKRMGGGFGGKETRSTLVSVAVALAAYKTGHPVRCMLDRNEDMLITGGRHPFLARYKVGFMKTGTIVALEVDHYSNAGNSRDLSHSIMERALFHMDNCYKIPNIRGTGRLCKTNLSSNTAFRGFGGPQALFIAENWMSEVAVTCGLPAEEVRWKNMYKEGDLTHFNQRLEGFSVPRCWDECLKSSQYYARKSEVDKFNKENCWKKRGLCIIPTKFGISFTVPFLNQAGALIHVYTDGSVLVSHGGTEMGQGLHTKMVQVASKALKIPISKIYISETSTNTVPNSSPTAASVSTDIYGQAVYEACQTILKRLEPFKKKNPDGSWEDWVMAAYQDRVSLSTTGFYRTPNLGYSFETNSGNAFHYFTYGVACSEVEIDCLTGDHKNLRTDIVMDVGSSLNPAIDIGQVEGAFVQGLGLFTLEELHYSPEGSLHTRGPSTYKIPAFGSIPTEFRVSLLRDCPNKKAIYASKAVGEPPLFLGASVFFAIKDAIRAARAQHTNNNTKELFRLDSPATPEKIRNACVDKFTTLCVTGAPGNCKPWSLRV
UniProt P23219, 24-599: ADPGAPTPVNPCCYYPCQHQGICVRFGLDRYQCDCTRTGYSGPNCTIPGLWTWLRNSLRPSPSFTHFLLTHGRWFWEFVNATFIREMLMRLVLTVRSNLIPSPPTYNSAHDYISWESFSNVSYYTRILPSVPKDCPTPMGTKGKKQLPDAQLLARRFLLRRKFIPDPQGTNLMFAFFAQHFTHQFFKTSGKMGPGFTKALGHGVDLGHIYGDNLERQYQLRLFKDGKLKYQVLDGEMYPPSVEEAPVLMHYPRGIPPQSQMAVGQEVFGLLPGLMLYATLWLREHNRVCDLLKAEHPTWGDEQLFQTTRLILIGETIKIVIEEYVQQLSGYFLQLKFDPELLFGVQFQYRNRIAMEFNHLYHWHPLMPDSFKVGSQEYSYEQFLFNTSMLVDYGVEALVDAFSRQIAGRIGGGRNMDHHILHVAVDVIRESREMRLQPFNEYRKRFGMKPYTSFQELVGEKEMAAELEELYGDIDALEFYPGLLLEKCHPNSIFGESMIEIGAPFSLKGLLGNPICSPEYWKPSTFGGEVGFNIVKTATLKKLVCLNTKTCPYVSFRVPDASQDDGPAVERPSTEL

One assay has as its target xanthine oxidase (Bos taurus, UniProt P80457). Description: In vitro screening of compounds as potential inhibitors of xanthine oxidase. In kind it is biochemical. The conditions noted are these: xanthine oxidase 0.01 units/ml, xanthine 5.10^-5 M, pH 7.4.
For assay [1], the target named is T1, cyclooxygenase (human platelets microsomes) (Homo sapiens, UniProt P23219).
T1 construct: human platelets microsomes; from tissue; host or cells: human platelet microsomes (microsomal powder)
Nature of the assay: Cycloxygenase inhibition in human platelets microsomes. In kind it is biochemical.

On xanthine oxidase, `O=c1c(O)c(-c2ccc(O)cc2)oc2cc(O)cc(O)c12` [Campherol, reference compound] had an IC50 of 7.89 µM.
Molecule `CCCCC1C(=O)N(c2ccccc2)N(c2ccccc2)C1=O` [Phenylbutazone, reference compound] displayed an IC50 in assay [1] of 274 µM.
